{
  "source": "patent US20240141017A1",
  "about": "“FLUORESCENT BIOSENSORS AND METHODS OF USE FOR DETECTING CELL SIGNALING EVENTS” (THE REGENTS OF THE UNIVERSITY OF MICHIGAN, priority 2021, published 2024)",
  "key": {"[1]": {"target": "chimeric opioid receptor of M-SPOTIT1.1 (MOR with the cytosolic domain of K-SPOTIT1.1) (Homo sapiens (Human)) (UniProt P35372)", "assay": "cell-based or functional assay"}},
  "note": "Read-outs that look alike come from different tables or passages of the source.",
  "data": [
    {"molecule": "C[C@@H](NC(=O)[C@@H](N)Cc1ccc(O)cc1)C(=O)NCC(=O)N(C)[C@@H](Cc1ccccc1)C(=O)NCCO", "note": "[DAMGO]", "values": [
      {"measurement": "agonist exposure sufficient to generate a robust fluorescence signal", "setting": "M-SPOTIT1.1", "value": "requires longer incubation time"},
      {"measurement": "biosensor activation in maturation time course", "setting": "M-SPOTIT1.1", "value": "lower biosensor activation than fentanyl"},
      {"measurement": "activation of M-SPOTIT1.1", "setting": "M-SPOTIT1.1; pH 9", "value": "activate"}
    ]},
    {"molecule": "CC(C)NCC(O)c1ccc(O)c(O)c1", "note": "(centres unmarked) [isoproterenol]", "values": [
      {"measurement": "increase in fluorescence / signal change vs no drug", "setting": "M-SPOTIT1.1; 10 μM drug, 24 hours, fixed, imaged at pH 9", "value": 2.2, "unit": "fold"}
    ]},
    {"molecule": "beta-endorphin (YGGFMTSEKSQTPLVTLFKNAIIKNAYKKGE; Beta-endorphin; UniProt P01189 237-267, looked up)", "values": [
      {"measurement": "activation of M-SPOTIT1.1", "setting": "M-SPOTIT1.1; pH 9", "value": "activate"}
    ]},
    {"molecule": "CC(C)C[C@@H](NC(=O)[C@H](Cc1ccccc1)NC(=O)CNC(=O)[C@@H](C)NC(=O)[C@@H](N)Cc1ccc(O)cc1)C(=O)O", "note": "[DADLE]", "values": [
      {"measurement": "increase in fluorescence / signal change vs no drug", "setting": "M-SPOTIT1.1; pH 9", "value": 1.6, "unit": "fold"}
    ]},
    {"molecule": "leu-enkephalin", "values": [
      {"measurement": "activation of M-SPOTIT1.1", "setting": "M-SPOTIT1.1; pH 9", "value": "activate"}
    ]},
    {"molecule": "Gαi protein mimic nanobody 39 (Nb39) (VHH) VHH: QVQLVESGGGLVRPGGSLRLSCVDSERTSYPMGWFRRAPGKEREFVASITWSGIDPTYADSVADRFTTSRDVANNTLYLQMNSLKHEDTAVYYCAARAPVGQSSSPYDYDYWGQGTQVTVSS", "values": [
      {"measurement": "cpGFP fluorescence of M-SPOTIT1.1 on incubation with MOR agonists", "setting": "[1]", "value": 3.2, "unit": "fold"}
    ]}
  ]
}
